## AlphaSeq binding of Ab-14 heavy chain variants to a spike HR2 peptide

Data: MIT Lincoln Laboratory AlphaSeq set, Li et al. 2023, doi:10.1038/s41467-023-39022-2, as distributed in FLAb.

All variants were tested on one target, the spike HR2 peptide PDVDLGDISGINAS (SARS-CoV-2).

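The starting antibody came from a phage panning campaign against this peptide. The variants were designed computationally from a first round of random CDR variants and then made and measured. Several design methods are mixed in this list. The assay is AlphaSeq: two haploid yeast populations carry antibody and antigen on their surface. Mating (16 h, 30 °C) was followed by selection of diploids and sequencing of their barcodes. Read counts were normalised to the haploid input and turned into Kd by a linear fit to BCL2-family pairs of known affinity, for each replicate. The assay was run in six technical replicates.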

Parent: Ab-14, a human scFv built as VH, a 15-residue (Gly4Ser)3 linker, VL. Only the CDRs of the heavy chain vary.
VH: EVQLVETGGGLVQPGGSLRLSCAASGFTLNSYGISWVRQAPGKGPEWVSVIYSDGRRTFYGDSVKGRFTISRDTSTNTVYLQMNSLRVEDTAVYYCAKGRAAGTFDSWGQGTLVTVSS
VL: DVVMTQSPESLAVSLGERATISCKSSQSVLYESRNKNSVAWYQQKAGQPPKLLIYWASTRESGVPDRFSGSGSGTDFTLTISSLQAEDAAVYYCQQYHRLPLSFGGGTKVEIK

Each variant is given by its three heavy chain CDRs, as the data file delimits them; those of the parent are GFTLNSYGIS, VIYSDGRRTFYGDSVK, GRAAGTFDS.
This list holds designs with more than six substitutions.
Each Kd is an estimate from the mating assay, the geometric mean of the replicates in which the pair was seen; lower is stronger.
An entry "no signal" has no value in the source: the pair was not observed among the diploids in any replicate. This suggests poor binding but is not conclusive.

The variant GFDLNEYGIS | VIYADGRRTFYSNSVK | GEAAGTFDV gave 3.2 nM (6 of 6 replicates).
The variant GFNLNEFGIS | VIYADGHRQAYVSNVK | GHLGGHFSM gave no signal (0 of 6 replicates).
The variant GMDLQEFGIS | VIYADGVREYYTDDFK | GQIAGTIDL gave no signal (0 of 6 replicates).
The variant GFDLNEYGIS | VIYADGMRTAYSDNVK | GNQAGTFDI gave 2.5 nM (6 of 6 replicates).
The variant GENLSEYGIS | VIYADGKKTAYSNAVK | GANGGIFNV gave no signal (0 of 6 replicates).
The variant GFDLNEYGIS | VIYADGVRTFYADSVK | GGNAGTFDV gave 660 pM (6 of 6 replicates).
The variant GFDLNEYGIS | VIYADGMRTYYADSVK | GQTAGTFDV gave 810 pM (6 of 6 replicates).
The variant GFDLSEYGIS | VIYADGMRTAYADSVK | GNVAGTFDV gave 120 pM (6 of 6 replicates).
The variant GFTLNSYTIS | VIEADGRRTFYGDSVK | GTAAGGNKY gave no signal (0 of 6 replicates).
The variant GFDLNEYGIS | VIYADGHRQQYSNNVK | GGQAGIGLS gave no signal (0 of 6 replicates).
The variant GFDLNEYGIS | VIYADGRRQFYADKVK | GENAGTFDV gave 770 pM (6 of 6 replicates).
The variant GFDLDEYGIS | VIYADGMRTAYADNVK | GETAGTFDI gave 2.8 nM (6 of 6 replicates).
The variant GFNLNEYGIS | VIYADGKRTFYADSVK | GQQAGTFDM gave 300 pM (6 of 6 replicates).
The variant GFDLNEYGIS | VIYADGRRTSYVDSVK | GEAAGTFNV gave 330 pM (6 of 6 replicates).
The variant GFDLNEYGIS | VIYADGVRTAYSDSVK | GEVAGTFDQ gave 3.3 nM (6 of 6 replicates).
The variant GFDLNEYGIS | VIYADGSRTFYADSVK | GEIAGTFDQ gave 12 nM (2 of 6 replicates).
The variant GFDLQEYGIS | VIYADGARKSYTNSVK | GVWGTTMDV gave 840 nM (1 of 6 replicates).
The variant GFDLDEYGIS | VIYADGMRQAYADSVK | GENAGTFDV gave 470 pM (6 of 6 replicates).
The variant GFDLNEYGIS | VIYADGLRTFYTDSVK | GEQAGTFDV gave 140 pM (6 of 6 replicates).
The variant GFQLDEFGIS | VIYADGKRSSYVDDVK | GELTGGFKV gave no signal (0 of 6 replicates).
The variant GFDLDEYGIS | VIYADGQRTAYADNVK | GENAGTFDV gave 370 pM (6 of 6 replicates).
The variant GFDLNEYGIS | VIYADGKRTAYVDSVK | GANAGTFDV gave 2.1 nM (6 of 6 replicates).
The variant GFDLNEYGIS | VIYADGSRKAYADSVK | GNVAGTFDT gave 150 pM (6 of 6 replicates).
The variant GFDLNEYGIS | VIYADGMRTAYIDSVK | GEVAGTFDS gave 250 pM (6 of 6 replicates).
The variant GFDLNEYGIS | VIYADGMRTAYADSVK | GNTAGTFDV gave 400 pM (6 of 6 replicates).
The variant GFDLNEYGIS | VIYADGVRTFYADSVK | GQNAGTFDQ gave 390 pM (6 of 6 replicates).
The variant GFDLDEYGIS | VIYADGKRTAYADKVK | GNQAGTFDV gave 750 pM (6 of 6 replicates).
The variant GFDLDEYGIS | VIYADGRRTAYSDSVK | GEVAGTFDV gave 1.2 nM (6 of 6 replicates).
The variant GFDLDEYGIS | VIYADGMRTFYADDVK | GNVAGTFDL gave 330 pM (6 of 6 replicates).
The variant GFDLNEYGIS | VIYADGRRTFYKDSVK | GELAGTFDQ gave 270 pM (6 of 6 replicates).
The variant GFNLNEYGIS | VIYADGVRTFYSDSVK | GEVAGTFDV gave 460 pM (6 of 6 replicates).
The variant GFDLDEYGIS | VIYADGVRTAYADSVK | GSNAGTFDV gave 170 pM (6 of 6 replicates).
The variant EFDLQEYGIS | VIYADGKRVAYKDNVK | GNGGGVFIA gave no signal (0 of 6 replicates).
The variant GFDLNEYGIS | VIYADGVRKAYADDVK | GNVAGTFDL gave 310 pM (6 of 6 replicates).
The variant GFDLNEYGIS | VIYADGLRTAYVDSVK | GNVAGTFDV gave 470 pM (6 of 6 replicates).
The variant GFDLNEYGIS | VIYADGKRTVYADSVK | GNQAGTFDI gave 280 pM (6 of 6 replicates).
The variant GFDLNEYGIS | VIYADGRRTAYSDSVK | GEAAGTFDL gave 3.0 nM (4 of 6 replicates).
The variant GFDLNEYGIS | VIYADGMRTAYIDSVK | GEQAGTFDV gave 5.3 nM (6 of 6 replicates).
The variant GFDLNEYGIS | VIYADGRRTAYTDSVK | GEVAGTFDQ gave 800 pM (6 of 6 replicates).
The variant GFDLNEYGIS | VIYADGKRTFYSDSVK | GNAGGTFDV gave 2.3 nM (6 of 6 replicates).
The variant GFDINEYGIS | VIYADGRRTSYADSVK | GQNAGTFDV gave 270 pM (6 of 6 replicates).
The variant RFNLNKYGIS | VIYSDGRVTGYGDSVK | GGNYGTFDS gave no signal (0 of 6 replicates).
The variant GFDINEYGIS | VIYADGRRTFYADSVK | GGNAGTFDS gave 120 pM (6 of 6 replicates).
The variant GFDVDEYGIS | VIYADGKRVAYHDSFK | GQNNKVSIV gave no signal (0 of 6 replicates).
The variant GFDLNEYGIS | VIYADGSRTAYSDSVK | GNTAGTFDV gave 2.5 nM (6 of 6 replicates).
The variant GFDLNEYGIS | VIYADGRRQAYADSVK | GNNAGTFDV gave 550 pM (6 of 6 replicates).
The variant GFDIEEYGIS | VIYADGLRQYYKDNFK | GWNDGTIAV gave no signal (0 of 6 replicates).
The variant GFDLDEYGIS | VIYADGSRTAYADNVK | GEVAGTFDV gave 560 pM (6 of 6 replicates).
The variant GFDLNEYGIS | VIYADGMRTFYADSVK | GNQAGTFDV gave 450 pM (6 of 6 replicates).
The variant GKDLEEYGIS | VIYADGHRAAYIDSVK | GINMDVMTV gave no signal (0 of 6 replicates).
The variant GFDLNEYGIS | VIYADGRRKAYADSVK | GNVAGTFDV gave 220 pM (6 of 6 replicates).

The last 5 entries again:

{"CDR-H1": "GFDIEEYGIS", "CDR-H2": "VIYADGLRQYYKDNFK", "CDR-H3": "GWNDGTIAV", "Kd": "no signal", "replicates with signal": "0/6"}
{"CDR-H1": "GFDLDEYGIS", "CDR-H2": "VIYADGSRTAYADNVK", "CDR-H3": "GEVAGTFDV", "Kd": "560 pM", "replicates with signal": "6/6"}
{"CDR-H1": "GFDLNEYGIS", "CDR-H2": "VIYADGMRTFYADSVK", "CDR-H3": "GNQAGTFDV", "Kd": "450 pM", "replicates with signal": "6/6"}
{"CDR-H1": "GKDLEEYGIS", "CDR-H2": "VIYADGHRAAYIDSVK", "CDR-H3": "GINMDVMTV", "Kd": "no signal", "replicates with signal": "0/6"}
{"CDR-H1": "GFDLNEYGIS", "CDR-H2": "VIYADGRRKAYADSVK", "CDR-H3": "GNVAGTFDV", "Kd": "220 pM", "replicates with signal": "6/6"}

In the paper, a design with two or fewer of six values counts as a poor binder.
Empty control strains, which show no peptide, gave a signal in 1% of pairings with all heavy chain designs; the median was 120 nM and 95% of these signals were weaker than 7.0 nM. No background was subtracted.
Values of this round are not directly comparable with the first-round values of the same sequences.
Of ten entries with the parent sequence, four were seen in most replicates (averages 2.2 nM to 240 nM), three in one and three in none, so single entries are noisy.